One may read the IC50 as the concentration needed to halve the response being measured. A high value points to lower potency.

The chains behind the UniProt entries cited, without tags or fusion partners.
UniProt Q9N1N9, whole entry: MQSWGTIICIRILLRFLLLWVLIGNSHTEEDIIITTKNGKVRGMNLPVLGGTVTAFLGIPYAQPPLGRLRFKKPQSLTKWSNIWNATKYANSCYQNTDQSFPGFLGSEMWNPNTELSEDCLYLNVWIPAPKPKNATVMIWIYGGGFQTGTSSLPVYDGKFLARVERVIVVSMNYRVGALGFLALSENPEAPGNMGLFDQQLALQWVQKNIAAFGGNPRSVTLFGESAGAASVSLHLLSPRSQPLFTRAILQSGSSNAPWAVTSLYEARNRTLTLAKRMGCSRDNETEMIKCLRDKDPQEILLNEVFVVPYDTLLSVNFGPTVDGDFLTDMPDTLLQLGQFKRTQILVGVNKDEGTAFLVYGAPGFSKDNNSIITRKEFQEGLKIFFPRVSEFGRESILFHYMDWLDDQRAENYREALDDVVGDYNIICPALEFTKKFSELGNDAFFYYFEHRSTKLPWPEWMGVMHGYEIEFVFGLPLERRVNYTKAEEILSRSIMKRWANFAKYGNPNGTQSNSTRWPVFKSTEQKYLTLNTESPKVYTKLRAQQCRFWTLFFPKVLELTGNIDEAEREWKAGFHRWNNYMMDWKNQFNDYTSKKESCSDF
UniProt P19643, whole entry: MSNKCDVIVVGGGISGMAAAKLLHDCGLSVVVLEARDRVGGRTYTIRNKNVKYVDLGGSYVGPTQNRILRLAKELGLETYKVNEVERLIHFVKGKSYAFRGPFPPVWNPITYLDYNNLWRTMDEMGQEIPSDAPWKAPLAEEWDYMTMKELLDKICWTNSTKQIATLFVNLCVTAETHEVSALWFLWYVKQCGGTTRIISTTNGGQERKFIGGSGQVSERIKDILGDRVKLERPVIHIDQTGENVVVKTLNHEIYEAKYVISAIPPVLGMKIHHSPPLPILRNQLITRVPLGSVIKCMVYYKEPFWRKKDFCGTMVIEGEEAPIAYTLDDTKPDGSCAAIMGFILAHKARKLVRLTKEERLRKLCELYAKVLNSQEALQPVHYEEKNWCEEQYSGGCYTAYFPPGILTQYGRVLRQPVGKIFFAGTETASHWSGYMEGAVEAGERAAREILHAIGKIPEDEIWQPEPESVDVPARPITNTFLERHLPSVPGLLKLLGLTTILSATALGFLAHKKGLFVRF

For 2 molecules, IC50 results are on record in ChEMBL document CHEMBL1135657, “Novel dual inhibitors of AChE and MAO derived from hydroxy aminoindan and phenethylamine as potential treatment for Alzheimer's disease” (J Med Chem, 2002).

One assay deals with Butyrylcholinesterase (Equus caballus, UniProt Q9N1N9). The assay can be described thus: In vitro inhibitory concentration against Butyrylcholinesterase of horse serum; value ranges from 0.81-0.86.
Assay [1] has as its target Amine oxidase [flavin-containing] B (Rattus norvegicus, UniProt P19643). As to the kind of experiment: In vitro inhibitory concentration against Monoamine oxidase B of rat brain homogenates; value ranges from 0.27-0.36. It counts as tissue-based.

On Butyrylcholinesterase, `CCN(C)C(=O)Oc1cccc([C@H](C)N(C)C)c1` [RIVASTIGMINE] displayed a concentration for half-maximal inhibition (IC50) of 830 nM. In assay [1], `C#CCNC(C)Cc1ccccc1` (configuration not stated) showed a half-maximal inhibitory concentration (IC50) of 320 nM.
